Literature values in US20260053940A1, “PHARMACEUTICAL COMPOSITION OF ANTIBODY DRUG CONJUGATE” (GENEQUANTUM HEALTHCARE (SUZHOU) CO., LTD., priority 2022, published 2026).

Settings: cited from earlier work

## Enhertu
  interstitial lung disease, share of patients: no less than 10%
